Results: publication PMC3479967, “Drug-Drug Interactions Potential of Icariin and Its Intestinal Metabolites via Inhibition of Intestinal UDP-Glucuronosyltransferases” (Evidence-based Complementary and Alternative Medicine : eCAM, 2012)

Target: T1, UGT1A3 (Homo sapiens, UniProt P35503)
T1 sequence (P35503 29-534): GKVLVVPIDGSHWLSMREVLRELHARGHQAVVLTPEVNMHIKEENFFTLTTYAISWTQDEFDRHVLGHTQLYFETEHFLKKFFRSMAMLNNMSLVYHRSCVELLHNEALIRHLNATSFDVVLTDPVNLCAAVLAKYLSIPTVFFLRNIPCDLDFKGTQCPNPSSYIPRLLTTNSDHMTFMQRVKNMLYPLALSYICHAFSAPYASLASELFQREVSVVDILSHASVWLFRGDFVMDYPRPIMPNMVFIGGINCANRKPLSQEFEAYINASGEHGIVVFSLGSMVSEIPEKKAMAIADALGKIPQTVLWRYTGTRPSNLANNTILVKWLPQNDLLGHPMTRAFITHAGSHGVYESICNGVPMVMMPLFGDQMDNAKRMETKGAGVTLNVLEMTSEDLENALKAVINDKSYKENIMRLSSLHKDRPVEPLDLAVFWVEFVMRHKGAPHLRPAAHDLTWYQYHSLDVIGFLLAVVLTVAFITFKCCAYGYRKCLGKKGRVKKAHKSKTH
Assay: Inhibition of recombinant UGT1A3 activity (4-MU glucuronidation)
Settings: read-out: IC50 for inhibition of UGT1A3 activity; recombinant human UGT1A3, 1200 μM 4-MU, mean ± SD
Protocol: A panel of recombinant human UGT supersomes (UGT1A1, UGT1A3, UGT1A4, UGT1A6, UGT1A7, UGT1A8, UGT1A9, UGT1A10, UGT2B4, UGT2B7, UGT2B15, and UGT2B17) expressed in baculovirus-infected insect cells were purchased from BD Gentest Corp. (Woburn, MA, USA).
4-MU, a nonselective substrate of UGTs, was used as probe substrate for all UGTs except UGT1A4. Incubations with each individual enzyme were conducted using conditions previously described. There was a 5 min preincubation step at 37°C before the reaction was started by addition of UDPGA. The incubation mixtures were then centrifuged at 20,500 ×g for 15 min to obtain the supernatant. Aliquots (20 μL) were then analyzed by HPLC. The HPLC system (SHIMADZU, Kyoto, Japan) consisted of an SCL-10A system controller, two LC-10AT pumps, a SIL-10A auto injector, and a SPD-10AVP UV detector. […] The mobile phase consisted of 10 mM KH2PO4, pH 2.7 (A) and acetonitrile (B). […]
Inhibition data from experiments were graphically represented by Dixon plots. K i values were calculated by nonlinear regression using the equations for competitive inhibition (1), noncompetitive inhibition (2), or mixed inhibition (3), [22] […] The type of inhibition was determined from the enzyme inhibition models. […]

Icariside II
IC50: > 100 µM
